Measured values: patent US8309730B2, “Nonsteroidal compounds useful as modulators of glucocorticoid receptor AP-1 and/or NF-kappab acitivity and use thereof” (Bristol-Myers Squibb Company, priority 2007, dated 2012)

The chains behind the UniProt entries cited, without tags or fusion partners.
UniProt P04150, whole entry: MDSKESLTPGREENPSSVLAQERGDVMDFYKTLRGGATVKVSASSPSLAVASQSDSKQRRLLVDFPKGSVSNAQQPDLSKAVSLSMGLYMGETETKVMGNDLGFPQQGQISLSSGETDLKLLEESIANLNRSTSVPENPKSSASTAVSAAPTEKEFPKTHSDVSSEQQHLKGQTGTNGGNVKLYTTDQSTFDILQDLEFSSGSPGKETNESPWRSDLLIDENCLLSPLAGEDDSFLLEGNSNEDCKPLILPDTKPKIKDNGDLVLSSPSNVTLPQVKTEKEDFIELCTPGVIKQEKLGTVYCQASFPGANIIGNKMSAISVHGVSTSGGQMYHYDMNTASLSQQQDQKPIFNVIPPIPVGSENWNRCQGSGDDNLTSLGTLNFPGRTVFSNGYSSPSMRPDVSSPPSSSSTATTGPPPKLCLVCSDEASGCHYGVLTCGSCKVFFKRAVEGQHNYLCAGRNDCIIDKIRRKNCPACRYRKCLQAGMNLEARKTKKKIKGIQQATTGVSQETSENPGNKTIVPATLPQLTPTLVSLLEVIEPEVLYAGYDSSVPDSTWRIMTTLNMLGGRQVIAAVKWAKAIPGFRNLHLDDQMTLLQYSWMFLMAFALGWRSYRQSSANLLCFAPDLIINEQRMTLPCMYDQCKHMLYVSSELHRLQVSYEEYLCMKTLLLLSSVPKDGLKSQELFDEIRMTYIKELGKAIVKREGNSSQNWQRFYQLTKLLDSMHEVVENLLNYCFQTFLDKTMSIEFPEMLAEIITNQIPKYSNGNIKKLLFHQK

Molecular target: human glucocorticoid receptor (Homo sapiens, UniProt P04150)
Assay: Glucocorticoid Receptor Binding Assay (I), fluorescence polarization competitor kit
Conditions: read-out: GR (Ki, nM) (GR Binding Assay (I)); purified human recombinant full-length GR, Fluormone GS Red, 2 h room temperature

| Ki | Structure (SMILES) |
| --- | --- |
| 87.1 nM | CC(O)(c1ccccc1CN1CCCC1)[C@H]1CCCC2=Cc3c(-c4ccc(F)cc4)ncn3C[C@@]21C (some centres unmarked) |
| 38.3 nM | C[C@]12Cn3cnc(-c4ccc(F)cc4)c3C=C1CCC[C@@H]2CCNc1nccs1 |
